Laboratory results published in article PMC4423116, “Tarantula toxins use common surfaces for interacting with Kv and ASIC ion channels” (eLife, 2015).

Assays:
[1] = Acrylamide dequenching by lipid vesicles (quenching-enhanced fluorescence titration); assay type: physicochemical; conditions: LUVs POPC:POPG 1:1
Description: (§1) Protection of tryptophan fluorescence from acrylamide quenching was examined in the absence and presence of lipids (toxin: lipid = 1:500) by titration with increasing concentrations of acrylamide ([Milescu et al., 2007]). The Stern–Volmer quenching constant (KSV) was calculated based on the best fits of the following equation to the data: F0/F = 1 + KSV[Q], where F0 and F are fluorescence of the toxin in the absence and presence of acrylamide, and [Q] is the concentration of acrylamide. […] A solution containing ∼ 2 µM toxin and 0.3 M acrylamide was stirred continuously with addition of increasing concentrations of LUVs composed of 1:1 mixture of POPC and POPG. Fluorescence spectra (averaging three spectra) were recorded between 300 and 450 nm (5 nm band pass, 0° polarizer) using an excitation wavelength of 280 nm (5 nm band pass, 90° polarizer) (SPEX FluoroMax 3 spectrofluorometer) and corrected for vesicle scattering. For calculating mole–fraction partitioning coefficients (Kdx), the maximal fluorescence intensity (F at λmax) was measured and normalized to the zero lipid fluorescence intensity (F0). […]

[2] = Depth-dependent quenching of Trp fluorescence by brominated (diBr) phosphatidylcholines; assay type: physicochemical; conditions: 6,7-, 9,10- or 11,12-diBr PC : POPG 1:1 vesicles, 1.2 mM lipid
Description: For depth-dependent fluorescence quenching experiments with brominated lipids, LUVs contained a 1:1 molar ratio of POPG and POPC 6,7-, 9,10-, or 11,12-1-palmitoyl-2-stearoyl(dibromo)-sn-glycero-3-phosphocholine (diBr; Avanti Polar Lipids, Alabaster, AL). Fluorescence spectra were recorded between 300 and 450 nm using an excitation wavelength of 280 nm, corrected for vesicle scattering and normalized to the zero lipid fluorescence intensity.

[3] = Acrylamide quenching of Trp fluorescence (Stern-Volmer), protection by lipid vesicles; assay type: physicochemical; conditions: n = 3
Description: as §1

[4] = Membrane partitioning into lipid vesicles detected with intrinsic Trp fluorescence (blue shift); assay type: physicochemical; conditions: ∼2 µM toxin, pH 7.6, 25°C; for Kx (mole fraction partition coefficient): Trp fluorescence intensity at 320 nm vs available lipid (60% of total), LUVs POPC:POPG 1:1, 100 nm, 10 mM HEPES, 1 mM EDTA, excitation 280 nm, mean ± SEM (n = 3); for F/F0^max (partition function fit, 320 nm): maximum fluorescence increase at high lipid concentration, LUVs POPC:POPG 1:1
Description: Large unilamellar vesicles (LUVs) were prepared by drying the phospholipids from a chloroform solution under a nitrogen stream. The dried lipid film was rehydrated in buffer containing 10 mM HEPES, 1 mM EDTA, pH 7.6 (HEB). The resulting dispersions were extruded through 100 nm pore size polycarbonate filters (Millipore Corp.) till the solution became clear. All fluorescence measurements were performed in quartz cuvettes with 1 cm path length. Fluorescence spectra (averaging three spectra) were recorded between 300 and 450 nm (5 nm band pass, 0° polarizer) using an excitation wavelength of 280 nm (5 nm band pass, 90° polarizer) (SPEX FluoroMax 3 spectrofluorometer) and corrected for vesicle scattering. For lipid partitioning experiments, LUVs composed of a mix of 1:1 molar ratios of POPC (1-palmitoyl-2-oleoyl-sn-glycero-3-phosphocholine) and POPG (1-palmitoyl-2-oleoyl-sn-glycero-3-[phospho-rac-(1-glycerol)]) were added to a solution of toxin (∼2 μM final concentration), maintained at 25°C with continuous stirring in a total volume of 2 ml. Mole-fraction partitioning coefficients (Kx) were calculated by measuring the fluorescence intensity (F) at 320 nm and normalizing to the zero lipid fluorescence intensity (F0) ([Ladokhin et al., 2000]; [Milescu et al., 2007]). Kx was calculated based on the best fits of the following equation to the data: F/F0(L) = 1 + (F/F0^max − 1)Kx[L]/([W] + Kx[L]), where F/F0(L) is the change in fluorescence intensity for a given concentration of lipid, F/F0^max is the maximum fluorescence increase at high lipid concentrations, [L] is the average available lipid concentration (60% of total lipid concentration) and [W] is the molar concentration of water (55.3 M).

[5] = biological target: T1, Kv2.1 channel (Rattus norvegicus, UniProt P15387); experiment: Inhibition of Kv2.1 channel currents in Xenopus oocytes (two-electrode voltage clamp), apparent affinity; assay type: cell-based; conditions: Kv2.1 in oocytes; for ∆∆G (perturbation energy): from apparent Kd of mutant vs GxTx-1E(Nle)
T1 construct: expressed in transfected cells; host or cells: Xenopus laevis oocytes, cRNA injection
T1 sequence (P15387 1-857): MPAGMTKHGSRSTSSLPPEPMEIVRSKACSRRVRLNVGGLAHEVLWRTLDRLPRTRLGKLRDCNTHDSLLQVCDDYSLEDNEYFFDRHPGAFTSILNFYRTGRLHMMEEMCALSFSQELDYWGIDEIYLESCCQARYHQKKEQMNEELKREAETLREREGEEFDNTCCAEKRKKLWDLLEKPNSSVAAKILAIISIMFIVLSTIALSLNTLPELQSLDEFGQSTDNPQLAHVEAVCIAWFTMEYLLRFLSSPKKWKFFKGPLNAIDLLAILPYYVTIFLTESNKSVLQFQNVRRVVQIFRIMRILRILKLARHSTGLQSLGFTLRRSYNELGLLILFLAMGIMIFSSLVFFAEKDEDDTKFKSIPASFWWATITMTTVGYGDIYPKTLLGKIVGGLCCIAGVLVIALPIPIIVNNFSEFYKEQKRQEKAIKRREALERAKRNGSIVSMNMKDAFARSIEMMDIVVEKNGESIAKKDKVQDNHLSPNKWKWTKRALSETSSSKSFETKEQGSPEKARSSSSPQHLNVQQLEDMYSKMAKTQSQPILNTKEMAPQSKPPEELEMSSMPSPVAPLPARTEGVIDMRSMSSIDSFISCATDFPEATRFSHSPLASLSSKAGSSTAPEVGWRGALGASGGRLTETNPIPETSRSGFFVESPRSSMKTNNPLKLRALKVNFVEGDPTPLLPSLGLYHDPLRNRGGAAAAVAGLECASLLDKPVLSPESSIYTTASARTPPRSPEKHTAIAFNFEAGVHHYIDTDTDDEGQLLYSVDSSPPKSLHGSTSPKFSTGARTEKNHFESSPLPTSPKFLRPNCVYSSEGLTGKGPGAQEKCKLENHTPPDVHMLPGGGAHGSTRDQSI

| Compound | Kdx (mole-fraction partitioning coefficient from acrylamide dequenching) ([1]; maximal fluorescence intensity vs available lipid, ∼2 µM toxin, acrylamide 0.2 M / 0.3 M (methods), mean ± SEM (n = 3)) | F/F0^max (dequenching function fit) ([1]; maximum fluorescence increase at highest lipid concentration, acrylamide present) | quenching of Trp fluorescence by brominated lipids (in words) [2] | Ksv (Stern–Volmer constant), acrylamide quenching in aqueous solution ([3]; toxin ∼2 µM in solution, no lipid) | Ksv (Stern–Volmer constant), acrylamide quenching in presence of lipid vesicles ([3]; toxin ∼2 µM with 1.0 mM POPC:POPG 1:1 vesicles (toxin:lipid 1:500)) | Kx (mole fraction partition coefficient) [4] | Kx (mole fraction partition coefficient) ([4]; listed as GxTx-1E) | F/F0^max (partition function fit, 320 nm) [4] | ∆∆G (perturbation energy) [5] | Kd^mut/Kd^wt ([5]; ratio of apparent Kd of mutant to GxTx-1E(Nle)) |
| --- | --- | --- | --- | --- | --- | --- | --- | --- | --- | --- |
| CCCC[C@H](NC(=O)[C@@H]1CCCN1C(=O)[C@H](Cc1ccccc1)NC(=O)[C@H](CC(N)=O)NC(=O)[C@@H]1CSSC[C@@H]2NC(=O)[C@H](C)NC(=O)[C@@H]3CCCN3C(=O)[C@H](CCCCN)NC(=O)CNC(=O)[C@H](CO)NC(=O)CNC(=O)[C@@H]3CSSC[C@H](NC(=O)[C@H](C(C)C)NC(=O)[C@H](Cc4ccc(O)cc4)NC(=O)[C@H](CCCCN)NC(=O)[C@@H]4CCCN4C(=O)[C@H](CSSC[C@H](NC(=O)[C@H](CCC(=O)O)NC(=O)CNC(=O)[C@@H](N)CCC(=O)O)C(=O)NCC(=O)NCC(=O)N[C@@H](Cc4ccccc4)C(=O)N[C@@H](Cc4c[nH]c5ccccc45)C(=O)N[C@@H](Cc4c[nH]c5ccccc45)C(=O)N[C@@H](CCCCN)C(=O)N3)NC2=O)C(=O)N[C@@H](CO)C(=O)N2CCC[C@H]2C(=O)N[C@@H](CCCCN)C(=O)N[C@@H](Cc2c[nH]c3ccccc23)C(=O)NCC(=O)N[C@@H](CC(C)C)C(=O)N1)C(=O)N1CCC[C@H]1C(=O)O [GxTx-1E(Nle)] | (1.1 ± 0.2) × 10^7 | 3.5 ± 0.02 | strong quenching | 37.7 M⁻¹ | 9.1 M⁻¹ | (4.6 ± 0.8) × 10^6 | 4.6 ± 0.8 × 10^6 | 2.3 ± 0.05 | – | – |
| CCCC[C@H](NC(=O)[C@@H]1CCCN1C(=O)[C@H](Cc1ccccc1)NC(=O)[C@H](CC(N)=O)NC(=O)[C@@H]1CSSC[C@@H]2NC(=O)[C@H](C)NC(=O)[C@@H]3CCCN3C(=O)[C@H](CCCCN)NC(=O)CNC(=O)[C@H](CO)NC(=O)CNC(=O)[C@@H]3CSSC[C@H](NC(=O)[C@H](C(C)C)NC(=O)[C@H](Cc4ccc(O)cc4)NC(=O)[C@H](CCCCN)NC(=O)[C@@H]4CCCN4C(=O)[C@H](CSSC[C@H](NC(=O)[C@H](CCC(=O)O)NC(=O)CNC(=O)[C@@H](N)CCC(=O)O)C(=O)NCC(=O)NCC(=O)N[C@@H](Cc4ccccc4)C(=O)N[C@@H](C)C(=O)N[C@@H](Cc4c[nH]c5ccccc45)C(=O)N[C@@H](CCCCN)C(=O)N3)NC2=O)C(=O)N[C@@H](CO)C(=O)N2CCC[C@H]2C(=O)N[C@@H](CCCCN)C(=O)N[C@@H](Cc2c[nH]c3ccccc23)C(=O)NCC(=O)N[C@@H](CC(C)C)C(=O)N1)C(=O)N1CCC[C@H]1C(=O)O [Toxin W8A] | – | – | – | – | – | (1.3 ± 0.2) × 10^6 | – | 1.8 ± 0.01 | 2.23 kcal/mol | – |
| CCCC[C@H](NC(=O)[C@@H]1CCCN1C(=O)[C@H](Cc1ccccc1)NC(=O)[C@H](CC(N)=O)NC(=O)[C@@H]1CSSC[C@@H]2NC(=O)[C@H](C)NC(=O)[C@@H]3CCCN3C(=O)[C@H](CCCCN)NC(=O)CNC(=O)[C@H](CO)NC(=O)CNC(=O)[C@@H]3CSSC[C@H](NC(=O)[C@H](C(C)C)NC(=O)[C@H](Cc4ccc(O)cc4)NC(=O)[C@H](CCCCN)NC(=O)[C@@H]4CCCN4C(=O)[C@H](CSSC[C@H](NC(=O)[C@H](CCC(=O)O)NC(=O)CNC(=O)[C@@H](N)CCC(=O)O)C(=O)NCC(=O)NCC(=O)N[C@@H](Cc4ccccc4)C(=O)N[C@@H](Cc4c[nH]c5ccccc45)C(=O)N[C@@H](C)C(=O)N[C@@H](CCCCN)C(=O)N3)NC2=O)C(=O)N[C@@H](CO)C(=O)N2CCC[C@H]2C(=O)N[C@@H](CCCCN)C(=O)N[C@@H](Cc2c[nH]c3ccccc23)C(=O)NCC(=O)N[C@@H](CC(C)C)C(=O)N1)C(=O)N1CCC[C@H]1C(=O)O [Toxin W9A] | – | – | – | – | – | (7.6 ± 1.5) × 10^6 | – | 2.5 ± 0.05 | 1.93 kcal/mol | – |
| CCCC[C@H](NC(=O)[C@@H]1CCCN1C(=O)[C@H](Cc1ccccc1)NC(=O)[C@H](CC(N)=O)NC(=O)[C@@H]1CSSC[C@@H]2NC(=O)[C@H](C)NC(=O)[C@@H]3CCCN3C(=O)[C@H](CCCCN)NC(=O)CNC(=O)[C@H](CO)NC(=O)CNC(=O)[C@@H]3CSSC[C@H](NC(=O)[C@H](C(C)C)NC(=O)[C@H](Cc4ccc(O)cc4)NC(=O)[C@H](CCCCN)NC(=O)[C@@H]4CCCN4C(=O)[C@H](CSSC[C@H](NC(=O)[C@H](CCC(=O)O)NC(=O)CNC(=O)[C@@H](N)CCC(=O)O)C(=O)NCC(=O)NCC(=O)N[C@@H](Cc4ccccc4)C(=O)N[C@@H](Cc4c[nH]c5ccccc45)C(=O)N[C@@H](Cc4c[nH]c5ccccc45)C(=O)N[C@@H](CCCCN)C(=O)N3)NC2=O)C(=O)N[C@@H](CO)C(=O)N2CCC[C@H]2C(=O)N[C@@H](CCCCN)C(=O)N[C@@H](C)C(=O)NCC(=O)N[C@@H](CC(C)C)C(=O)N1)C(=O)N1CCC[C@H]1C(=O)O [Toxin W28A] | – | – | – | – | – | (5.5 ± 0.9) × 10^6 | – | 1.5 ± 0.01 | 3.14 kcal/mol | 197.7 |
